## Properties, as collected for the OPERA models

Source: data files of OPERA 2.9 (Mansouri et al.), github.com/kmansouri/OPERA.

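OPERA's authors assembled the values from existing databases and did not measure them anew. The files give a single number for a compound and property, which may rest on several reports. Method and conditions are not stated for these values. Where a salt, mixture or single isomer is drawn, the source does not say that exactly this form was tested. Some entries may be limits or estimates that an upstream database listed as plain numbers.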

Melting points are in °C.
The boiling point refers to atmospheric pressure (760 mmHg), by the definition of the set.
The octanol-water partition coefficient is given as log10; larger values mean a more lipophilic compound.
Water solubility is log10 of mol/L, nominally at 25 °C; higher is more soluble.
Vapor pressure is log10 of mmHg; the set covers 15 to 30 °C, mostly 20 to 25 °C.
The unbound fraction in human plasma runs from 0 (all bound) to 1 (all free).
Clint is human hepatic intrinsic clearance in µL/min per million cells; 0 means that no clearance was seen.
Cells with "–" have no entry in this list.

SMILES	name	MP (°C)	boiling point (°C)	logP (octanol/water)	water solubility (log10 mol/L)	log VP (log10 mmHg)	fu	hepatic Clint (µL/min/10^6 cells)
Cl.NNc1ccc(S(N)(=O)=O)cc1	4-Hydrazinylbenzene-1-sulfonamide--hydrogen chloride (1/1)	–	–	-0.99	–	-12.68	–	–
COc1nc(OC)nc(C2C(=O)Nc3c(F)cccc32)n1 (centres undefined)	3-(4,6-Dimethoxy-1,3,5-triazin-2-yl)-7-fluoroindolin-2-one	–	–	2.1	-6.287	–	–	–
C=C1CCOC(C=C(C)C)C1 (centres undefined)	2H-Pyran, tetrahydro-4-methylene-2-(2-methyl-1-propen-1-yl)-	–	–	3.2	-2.51	-0.362	–	–
CCC(C)N[Si](C)(NC(C)CC)NC(C)CC (centres undefined)	Silanetriamine, 1-methyl-N,N',N''-tris(1-methylpropyl)-	–	245	–	–	-1.663	–	–
Cc1ncoc1C#N	4-Methyloxazole-5-carbonitrile	-2	–	–	–	0.403	–	–
CCN(Cc1ccncc1)C(=O)C(CO)c1ccccc1 (centres undefined)	Tropicamide	–	–	1.3	-2.88	–	–	–
O=Cc1cc(O)c(O)c([N+](=O)[O-])c1	3,4-Dihydroxy-5-nitrobenzaldehyde	–	–	1.23	-1.938	-5.763	–	–
C=CCOC(=O)CCC1CCCCC1	Prop-2-en-1-yl 3-cyclohexylpropanoate	–	–	4.28	-4.062	-1.545	–	–
CNS(=O)(=O)c1cc(OC)c(N)cc1OC	Benzenesulfonamide, 4-amino-2,5-dimethoxy-N-methyl-	–	–	0.27	-3.651	–	–	–
OCC(CO)OB(OC(CO)CO)OC(CO)CO	–	-0.075	–	–	–	-3.472	–	–
CCOC(=O)C1CCC(C)CC1=O (centres undefined)	Ethyl 4-methyl-2-oxocyclohexane-1-carboxylate	–	245	–	-1.857	-0.681	–	–
CC1(C)S[C@@H]2[C@H](N=CN3CCCCCC3)C(=O)N2[C@H]1C(=O)O	Amdinocillin	–	–	1.3	-2.522	–	–	–
C/C=C/c1ccc(OC)c(OC)c1	4-trans-Propenylveratrole	–	–	–	-2.778	-2.426	–	–
Brc1cc(Br)c(Oc2c(Br)cc(Br)c(Br)c2Br)cc1Br	2,2',3,4,4',5',6-Heptabromodiphenyl ether	–	–	–	-8.683	-8.455	–	–
CC(=O)Oc1ccccc1C(=O)OCC(=O)N(C)CCO	–	70.5	–	0.06	–	–	–	–
CCCCCCCCCCCCOC(=O)c1cc(O)c(O)c(O)c1	Lauryl gallate	–	–	–	-6.393	-8.991	–	0
O=CCCCC=O	Glutaraldehyde	–	–	-0.36	0.223	–	–	–
N#CCC(=O)OCC(COC(=O)CC#N)(COC(=O)CC#N)COC(=O)CC#N	–	177.6	–	1.5	–	–	–	–
Cc1cc(CC(C)C)ccc1CCC=O	3-(4-Isobutyl-2-methylphenyl)propanal	–	284	–	-3.921	–	–	–
CC(C)NO	2-Propanamine, N-hydroxy-	–	–	0.267	0.41	-0.292	–	–
O=C(O)CCCCCCCCCCCC(=O)O	Tridecanedioic acid	–	–	3.3	–	-9.147	–	–
O=C(O)c1ccccc1SSc1ccccc1C(=O)O	Benzoic acid, 2,2'-dithiobis-	–	–	1.61	–	-9	–	–
C1CCOCOC1	1,3-Dioxepane	-77.5	–	0.6	–	1.352	–	–
CCCCCCn1ncc(N)c1N.CCCCCCn1ncc(N)c1N.O=S(=O)(O)O	–	84.39	–	–	-3.149	–	–	–
CCOC(C)OCCc1ccccc1 (centres undefined)	[2-(1-Ethoxyethoxy)ethyl]benzene	–	–	3.5	-2.632	-1.634	–	–
CCOC=C(C(=O)OCC)C(=O)OCC	Diethyl ethoxymethylenemalonate	–	–	1.8	–	-3.367	–	–
CCCCOCC(C)O (centres undefined)	1-Butoxy-2-propanol	–	–	1.175	–	-0.1	–	–
CC(=O)O[C@]1(C)CC[C@@]23C[C@@H]1C(C)(C)[C@@H]2CC[C@H]3C	Cedryl acetate	–	–	–	-5.427	-3.305	–	–
C=C(C)C(=O)OCCCCCCCCCCCCOC(=O)C(=C)C	1,12-Dodecanediyl bismethacrylate	5.5	–	–	-7.484	-5.061	–	–
C#C[C@]1(OC(C)=O)CC[C@H]2[C@@H]3CCC4=C[C@@H](OC(C)=O)CC[C@@H]4[C@H]3CC[C@@]21C	Ethynodiol diacetate	–	–	5	-4.986	–	0.325	–
CC(=O)c1cc[n+](C)cc1.Cc1ccc(S(=O)(=O)[O-])cc1	–	164	–	-2.547	–	–	–	–
CCNC(=S)NCC	N,N'-Diethylthiourea	–	–	–	-1.46	-5.319	–	–
CC1CC(=O)CC(C)(C)C1 (centres undefined)	3,3,5-Trimethylcyclohexanone	–	–	2.4	–	-0.347	–	–

Excerpt, the opening 5 entries:

{"smiles": "Cl.NNc1ccc(S(N)(=O)=O)cc1", "name": "4-Hydrazinylbenzene-1-sulfonamide--hydrogen chloride (1/1)", "logP (octanol/water)": "-0.99", "log VP (log10 mmHg)": "-12.68"}
{"smiles": "COc1nc(OC)nc(C2C(=O)Nc3c(F)cccc32)n1", "stereo": "centres undefined", "name": "3-(4,6-Dimethoxy-1,3,5-triazin-2-yl)-7-fluoroindolin-2-one", "logP (octanol/water)": "2.1", "water solubility (log10 mol/L)": "-6.287"}
{"smiles": "C=C1CCOC(C=C(C)C)C1", "stereo": "centres undefined", "name": "2H-Pyran, tetrahydro-4-methylene-2-(2-methyl-1-propen-1-yl)-", "logP (octanol/water)": "3.2", "water solubility (log10 mol/L)": "-2.51", "log VP (log10 mmHg)": "-0.362"}
{"smiles": "CCC(C)N[Si](C)(NC(C)CC)NC(C)CC", "stereo": "centres undefined", "name": "Silanetriamine, 1-methyl-N,N',N''-tris(1-methylpropyl)-", "boiling point (°C)": "245", "log VP (log10 mmHg)": "-1.663"}
{"smiles": "Cc1ncoc1C#N", "name": "4-Methyloxazole-5-carbonitrile", "MP (°C)": "-2", "log VP (log10 mmHg)": "0.403"}